Data on nine molecules can be found in patent US20130005644A1, “CYCLIC AGONISTS AND ANTAGONISTS OF C5A RECEPTORS AND G PROTEIN-COUPLED RECEPTORS” (PROMICS PTY LIMITED, priority 1997, published 2013).

Assay [1] addresses T1, C5aR (Homo sapiens, UniProt P21730).
T1 construct: endogenous in cells; host or cells: fresh human polymorphonuclear leukocytes (PMNs), intact cells
T1 sequence (P21730 1-350): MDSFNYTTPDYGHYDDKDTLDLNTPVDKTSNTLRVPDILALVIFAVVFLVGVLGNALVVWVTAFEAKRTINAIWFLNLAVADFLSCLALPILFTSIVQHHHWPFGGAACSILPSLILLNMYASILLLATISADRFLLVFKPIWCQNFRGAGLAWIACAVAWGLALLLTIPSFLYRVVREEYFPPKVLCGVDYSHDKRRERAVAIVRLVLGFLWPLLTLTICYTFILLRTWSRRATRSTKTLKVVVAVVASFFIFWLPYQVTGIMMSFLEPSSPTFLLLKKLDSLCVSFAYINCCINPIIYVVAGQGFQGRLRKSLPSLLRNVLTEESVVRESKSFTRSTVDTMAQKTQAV
The experiment in a line: Receptor-binding assay: inhibition of 125I-C5a binding to intact human PMNs.

Assay [2] has as its target T2, C5a receptor (Homo sapiens, UniProt P21730).
T2 construct: endogenous in cells; host or cells: fresh human polymorphonuclear leukocytes (PMNs), intact cells
T2 sequence (P21730 1-350): T1 sequence (P21730 1-350)
The experiment in a line: Agonist activity in human PMNs. It counts as cell-based. As to the method:
Cells were isolated as previously described (Sanderson et al, 1995) and incubated with cytochalasin B (5 μg/mL, 15 min, 37° C.). Hank's Balanced Salt solution containing 0.15% gelatin and peptide was added on to a 96 well plate (total volume 100 μL/well), followed by 25 μL cells (4×10^6/mL). To assess the capacity of each peptide to antagonise C5a, cells were incubated for 5 min at 37° C. with each peptide, followed by addition of C5a (100 nM) and further incubation for 5 min. Then 50 μL of sodium phosphate (0.1M, pH 6.8) was added to each well, the plate was cooled to room temperature, and 25 μL of a fresh mixture of equal volumes of dimethoxybenzidine (5.7 mg/mL) and H2O2 (0.51%) was added to each well. The reaction was stopped at 10 min by addition of 2% sodium azide. Absorbances were measured at 450 nm in a Bioscan 450 plate reader, corrected for control values (no peptide), and analysed by non-linear regression.

The target in assay [3] is T2, C5a receptor. The experiment in a line: Myeloperoxidase release from human PMNs mediated by 100 nM C5a (antagonist potency). The assay is classed as cell-based. The following applies: for IC50: 50% inhibition of C5a (100 nM)-caused release of MPO from PMNs, mean ± SE, read-out: pD2 ± SE (antagonist potency) (converted).
Assay [4] concerns human fetal artery. Conditions: C5a agonist analogues; cited from earlier work.
For assay [5], the target named is T2, C5a receptor. Conditions: read-out: PMN Enzyme Release EC50, C5a agonist analogues; cited from earlier work.
Assay [6] concerns the target T1, C5aR. The following applies: cited from earlier work.
Setting [7] is: 50% inhibition in the binding of [125I]C5a to intact PMNs, mean ± SE, read-out: pD2 ± SE (binding) (converted).

Each structure is given as a SMILES string. Where two headings read alike, the source gives them in different places.

Regarding `N=C(N)NCCC[C@H]1NC(=O)[C@H](Cc2c[nH]c3ccccc23)NC(=O)[C@@H](CC2CCCCC2)NC(=O)[C@@H]2CCCN2C(=O)[C@@H](NC(=O)[C@@H](N)Cc2ccccc2)CCNC1=O` [Compound 16, F-[X^2PdChaWr]], the IC50 in assay [1] (setting [7]) was 3.8 µM; in assay [1] (Table 5, cyclic molecules, read-out: Receptor Affinity), 3.7 µM. The “Agonist Activity” value in assay [2] (Table 5, cyclic molecules) is listed as “No”.

A word on the Kb: it is the equilibrium dissociation constant of an antagonist, usually derived from a functional assay. A lower Kb goes with higher antagonist affinity. What is called EC50 is the concentration at which the effect is half-maximal. In assay [3], `CSCC[C@H](NC(=O)[C@@H]1CCCN1C(=O)[C@H](CCCCN)NC(=O)[C@H](Cc1ccccc1)NC(=O)[C@H](CO)NC(=O)[C@@H](N)Cc1ccc(O)cc1)C(=O)N1CCC[C@H]1C(=O)N[C@@H](CC(C)C)C(=O)N[C@H](C)C(=O)N[C@@H](CCCNC(=N)N)C(=O)O` [Compound 4] registered an antagonist dissociation constant (Kb) of 0.0014 µM. The “Agonist Activity” value in assay [2] (dose range 0.1 nM-1 mM, human PMNs) was “Yes”. For the same molecule, the results for the EC50 in assay [4] and in assay [5] were 0.2 µM and 4.1 µM, respectively. The IC50 in assay [6] (read-out: Binding Affinity IC50, PMN C5aR, Finch et al, 1997) is 6 µM; in assay [6] (read-out: Receptor Affinity IC50, literature values (Finch et al, 1997; Kawai et al, 1991)) it was 6 µM.

Take `CC(=O)N[C@@H](Cc1ccccc1)C(=O)N[C@H]1CCNC(=O)[C@@H](CCCNC(=N)N)NC(=O)[C@H](Cc2c[nH]c3ccccc23)NC(=O)[C@@H](CC2CCCCC2)NC(=O)[C@@H]2CCCN2C1=O` [Compound 23, AcF-[X^2PdChaWr]]: the IC50 was 17 µM in assay [1] (setting [7]) and 0.813 µM in assay [3].

On to `N=C(N)NCCC[C@H]1NC(=O)[C@H](Cc2c[nH]c3ccccc23)NC(=O)[C@@H](CC2CCCCC2)NC(=O)[C@@H]2CCCN2C(=O)[C@@H](NC(=O)[C@@H](N)Cc2ccccc2)CCCNC1=O` [Compound 25, F-[OPdChaWr]], for which the IC50 in assay [1] (setting [7]) was 3.09 µM; in assay [3], 1.62 µM.

Turning to `N=C(N)NCCC[C@@H]1NC(=O)[C@H](Cc2c[nH]c3ccccc23)NC(=O)[C@@H](CC2CCCCC2)NC(=O)[C@@H]2CCCN2C(=O)[C@@H](NC(=O)[C@@H](N)Cc2ccccc2)CCCNC1=O` [Compound 27, F-[OPdChaWR]], the IC50 is 0.0617 µM in assay [1] (setting [7]) and 0.0389 µM in assay [3].

In the case of `CC(=O)N[C@@H](CCCCN)C(=O)N[C@@H](Cc1ccccc1)C(=O)N[C@H]1CCCNC(=O)[C@@H](CCCNC(=N)N)NC(=O)[C@H](Cc2c[nH]c3ccccc23)NC(=O)[C@@H](CC2CCCCC2)NC(=O)[C@@H]2CCCN2C1=O` [Compound 24, AcKF-[OPdChaWr]], the IC50 in assay [1] (setting [7]) is 11 µM; in assay [3], 0.186 µM.

`N=C(N)NCCC[C@H]1NC(=O)[C@H](Cc2c[nH]c3ccccc23)NC(=O)[C@@H](CC2CCCCC2)NC(=O)[C@@H]2CCCN2C(=O)[C@@H](NC(=O)[C@@H](N)Cc2ccccc2)CNC1=O` [Compound 14, F-[XPdChaWr]]: the “Agonist Activity” value in assay [2] (Table 5, cyclic molecules) is given as “No”.

As for `N=C(N)NCCC[C@@H]1NC(=O)[C@H](Cc2c[nH]c3ccccc23)NC(=O)[C@@H](CC2CCCCC2)NC(=O)[C@@H]2CCCN2C(=O)[C@@H](NC(=O)[C@@H](N)Cc2ccccc2)CNC1=O` [Compound 13, F-[XPdChaWR]], the “Agonist Activity” value in assay [2] (Table 5, cyclic molecules) is reported as “No”.

`CC(=O)N[C@@H](Cc1ccccc1)C(=O)N[C@H]1CNC(=O)[C@@H](CCCNC(=N)N)NC(=O)[C@H](Cc2c[nH]c3ccccc23)NC(=O)[C@@H](CC2CCCCC2)NC(=O)[C@@H]2CCCN2C1=O` [Compound 22, AcF-[XPdChaWr]]: the values for the IC50 in assay [1] (setting [7]) and in assay [3] were 9.55 µM and 19.5 µM, respectively.
